Experiments:
Assay type in all cases: in vivo
[1] = test system: WT and TIMP-3−/− mice post-MI; assay: Survival after myocardial infarction (MI) with cetuximab treatment
Description: Wild-type (WT) mice of the genetic background C57BL/6 were purchased from Charles River Laboratories (Wilmington, Mass.). TIMP3^−/− mice were generated as described previously and back-crossed more than 7 generations into the C57BL/6 background. Animals were provided with food and water ad libitum and maintained in a temperature and humidity controlled facility with 12-hour light and dark cycles. A breeding program was carried out to generate adults for this study. Animal studies were approved by the University of Western Ontario Institutional Animal Care and Use Committee, and the investigation conformed with the Guide for the Care and Use of Laboratory Animals, published by National Institutes of Health (NIH Publication No. 85-23, revised 1996).
(§1) MI was induced by occlusion of the left anterior descending coronary artery as we have previously described. Experiments were conducted at 5 or 30 days post surgery to mimic early and later stages of heart failure, respectively. Survival was monitored, and incidence of cardiac rupture and the left ventricle to body weight ratio were recorded. Mice with infarct sizes between 30-45% were used in all studies.
(§2) Following MI, WT and TIMP-3^−/− mice were treated with cetuximab (Erbitux®, 10 mg/kg) immediately by an IV injection, which was followed by IP injections at day 3 and 5 post-MI, respectively. Survival was monitored for 30 days after MI. […]

[2] = test system: WT and TIMP-3−/− mice post-MI; assay: Assessment of cardiac rupture post-MI with cetuximab treatment
Description: as §1
Deceased mice were examined within 12 hours. The chest was opened to examine bleeding around the infarct region. Hearts were then removed and the left ventricle (LV) chamber was cannulated with a 20 G blunt end IV catheter via the aorta and perfused with 200 μL saline to determine if there was leakage from the infarct region. Histological examination was conducted to confirm the region of cardiac rupture. Briefly, WT and TIMP-3^−/− hearts were isolated after death post-MI and fixed in 4% paraformaldehyde and embedded in paraffin. Samples were then sectioned (5 μm), stained with hematoxylin/eosin and visualized using a Zeiss microscope (Observer D1) as in our previous study.
as §2, with “MI. Hemodynamic measurements were made at 5 and 30 days post-MI.” for “MI.”

[3] = test system: WT and TIMP-3−/− mice post-MI; assay: Hemodynamic measurements (Millar pressure transducer catheter) post-MI with cetuximab treatment; details: for Heart Rate / LV +dP/dt / LV −dP/dt / LVEDP / LVSP / MAP: MI + Cetux, mean ± SEM
Description: as §1
Cardiac function was measured at 5 and 30 days post-MI using a Millar pressure transducer catheter (Model SPR-839, Size 1.4F) as previously described. Measurements included arterial pressures, heart rate, LV systolic and end-diastolic pressures, as well as the maximal rate of LV pressure development (+dP/dt) and maximal rate of pressure relaxation (−dP/dt). Animals were sacrificed after hemodynamic measurements and cardiac hypertrophy was assessed by determination of the heart weight (mg) to the body weight (g) ratio.
Following MI, WT and TIMP-3^−/− mice were treated with cetuximab (Erbitux®, 10 mg/kg) immediately by an IV injection, which was followed by IP injections at day 3 and 5 post-MI, respectively. Survival was monitored for 30 days after MI. Hemodynamic measurements were made at 5 and 30 days post-MI. Post-mortem examinations were performed in all mice that died after MI to identify cardiac ruptures.

[4] = WT mice, cetuximab 10 mg/kg, P=n.s.
[5] = TIMP-3−/− mice, 30 days post-MI
[6] = TIMP-3−/− mice, 30 days post-MI, P<0.05 vs MI

Substance: cetuximab
- 30-day survival post-MI ([1]; TIMP-3−/− mice, cetuximab 10 mg/kg IV immediately, IP at day 3 and 5 post-MI, untreated 22.7%, P<0.01): 62.5%
- effect on survival [1, 4]: did not have any significant effect
- incidence of cardiac rupture ([2]; TIMP-3−/− mice, cetuximab 10 mg/kg immediately and at day 3 and 5 post-MI, untreated 34%, P<0.05): 12%
- effect on cardiac rupture [2, 4]: did not have any significant effect
- Heart Rate ([3]; TIMP-3−/− mice, 5 days post-MI): 412 ± 14 bpm
- LV +dP/dt ([3]; TIMP-3−/− mice, 5 days post-MI): 4981 ± 885 mmHg s^−1
- LV −dP/dt ([3]; TIMP-3−/− mice, 5 days post-MI): 4206 ± 568 mmHg s^−1
- LVEDP ([3]; TIMP-3−/− mice, 5 days post-MI): 7.1 ± 0.9 mmHg
- LVSP ([3]; TIMP-3−/− mice, 5 days post-MI): 72.5 ± 3.9 mmHg
- MAP ([3]; TIMP-3−/− mice, 5 days post-MI): 67.0 ± 4.5 mmHg
- Heart Rate [3, 5]: 371 ± 17 bpm
- LV +dP/dt [3, 5]: 7312 ± 463 mmHg s^−1
- LV −dP/dt [3, 5]: 6996 ± 931 mmHg s^−1
- LVEDP [3, 5]: 9.0 ± 2.8 mmHg
- LVSP [3, 5]: 117.7 ± 11.8 mmHg
- MAP [3, 5]: 79.9 ± 4.2 mmHg
- LV+dP/dt change after cetuximab treatment [3, 6]: significantly increased
- LVSP change after cetuximab treatment [3, 6]: significantly increased
- cardiac function ([3]; TIMP-3−/− mice, day 5 post-MI, cetuximab vs MI alone): not significantly different
- Heart Rate ([3]; WT mice, 5 days post-MI): 429 ± 35 bpm
- LV +dP/dt ([3]; WT mice, 5 days post-MI): 4428 ± 676 mmHg s^−1
- LV −dP/dt ([3]; WT mice, 5 days post-MI): 3974 ± 455 mmHg s^−1
- LVEDP ([3]; WT mice, 5 days post-MI): 9.8 ± 2.5 mmHg
- LVSP ([3]; WT mice, 5 days post-MI): 76.5 ± 4.9 mmHg
- MAP ([3]; WT mice, 5 days post-MI): 62.1 ± 4.5 mmHg
- Heart Rate ([3]; WT mice, 30 days post-MI): 381 ± 17 bpm
- LV +dP/dt ([3]; WT mice, 30 days post-MI): 5523 ± 376 mmHg s^−1
- LV −dP/dt ([3]; WT mice, 30 days post-MI): 5767 ± 391 mmHg s^−1
- LVEDP ([3]; WT mice, 30 days post-MI): 11.5 ± 2.6 mmHg
- LVSP ([3]; WT mice, 30 days post-MI): 94.3 ± 7.0 mmHg
- MAP ([3]; WT mice, 30 days post-MI): 74.9 ± 3.7 mmHg
- effect on cardiac function [3, 4]: did not have any significant effect
